Data from patent US7884136B2, “Modified-release formulations of a bupropion salt” (Biovail Laboratories International S.R.L., priority 2005, dated 2011).

How the values were obtained:
[1] = cited from earlier work
[2] = Forced degradation stability study of bupropion salts spiked with placebo/excipients, closed vials, 40° C./75% RH, HPLC assay and impurities; details: for Order of stability (assay) with IPA & EtOH: DS and excipients spiked with IPA & EtOH; for Order of stability (assay) with IPA & EtOH / Order of stability (assay) with water: 32 days, 40° C.; for Order of stability (assay) with water: DS and excipients spiked with water; for Stability in the forced degradation stability studies, overall: DS and spiked DS; for Order of stability (assay, % potency): salt plus excipients, 20 days, closed vial
Procedure: The stability of the salts was evaluated based on the formation of the main degradation products (see below) as determined by HPLC analysis and the % potency (or assay) of the API, after specific time periods in the stability chamber. The effect of the addition of solvents, such as water, ethanol and isopropyl alcohol, was also studied.
The samples of each salt and the spiked salts with the bupropion HCl XL were prepared under the conditions mentioned in Table 4. […] The stability of the bupropion salts were evaluated based on the formation of the main degradation product 3-chlorobenzoic acid (3-CBZ) and the intermediate degradation products diketone 827U76 and the ketohydroxyl derivatives (20U78 and 852U77) (Scheme 2).
As mentioned above, the stability samples were prepared in 2 mL vials and used directly for assay and impurity analysis by HPLC without further sample preparations to minimize errors.

[3] = Thermal analysis by TGA of bupropion salts; type: physicochemical
Procedure: 2-5 mg of each salt was placed in an aluminium pan and covered with its lid. DSC was run for each sample at the rate of 10° C./min (for HBr salt, different rates were used to investigate for polymorphs) from 30° C. to 400° C. TGA was also used for each of the HBr, HCl, maleate and tosylate salts.
The salts were analysed by DSC (at 10° C./min from 30° C. up to 400° C.) and the pH (aq. 0.5%), and the moisture content by KF were also measured. The TGA was performed on the HCl, maleate, tosylate and HBr salts.

[4] = Polyethylene Glycol Alkyl Phenol Surfactants, as reported by the manufacturer
[5] = PEG-Fatty Acid Monoester Surfactants
[6] = Polyethylene Glycol Alkyl Ethers, as reported by the manufacturer
[7] = PEG-Sorbitan Fatty Acid Esters, as reported by the manufacturer

## PEG-15-100 octyl phenol ether
[1]; [4]
  HLB: >10

## Bupropion Fumarate
[2]; closed vials
  Order of stability (assay) with IPA & EtOH: HCl>HBr>tosylate>maleate>fumarate
  Order of stability (assay) with water: tosylate>maleate>HCl>HBr>fumarate
[2]; 40° C./75% RH
  Stability in the forced degradation stability studies, overall: neither stable in water nor in the organic solvents IPA & EtOH
  Order of stability (assay, % potency): HBr>HCl=tosylate>fumarate>maleate

## PEG-4 laurate
[1]; [5]
  HLB: 9.3

## Bupropion tosylate
[3]
  TGA: thermal stability: not thermally stable
[2]; closed vials
  Order of stability (assay) with IPA & EtOH: HCl>HBr>tosylate>maleate>fumarate
  Order of stability (assay) with water: tosylate>maleate>HCl>HBr>fumarate
[2]; 40° C./75% RH
  Stability in the forced degradation stability studies, overall: good stability
  Order of stability (assay, % potency): HBr>HCl=tosylate>fumarate>maleate

## PEG-6 laurate
[1]; [5]
  HLB: 11.4

## PEG-10-100 nonyl phenol
[1]; [4]
  HLB: >10

## PEG-2 cetyl ether
[1]; [6]
  HLB: 5.3

## Bupropion maleate
[2]; closed vials
  Order of stability (assay) with IPA & EtOH: HCl>HBr>tosylate>maleate>fumarate
  Order of stability (assay) with water: tosylate>maleate>HCl>HBr>fumarate
[2]; 40° C./75% RH
  Order of stability (assay, % potency): HBr>HCl=tosylate>fumarate>maleate

## PEG-4 sorbitan monostearate
[1]; [7]
  HLB: 9.6

## PEG-40 laurate
[1]; [5]
  HLB: 17.9

## PEG-10 sorbitan laurate
[1]; [7]
  HLB: >10

## Bupropion succinate
[2]; 10 days, 40° C./75% RH, closed vials, with or without excipients
  Stability in the 10 days forced degradation study: not stable
[2]; 40° C./75% RH
  Stability in the forced degradation stability studies, overall: very poor

## PEG-6 sorbitan tetraoleate
[1]; [7]
  HLB: 8.5

## PEG-2 stearyl ether
[1]; [6]
  HLB: 4.9

Read-outs that look alike come from different tables or passages of the source.
